According to article PMC12198282, “Application of a high-density microelectrode array assay using a 3D human iPSC-derived brain microphysiological system model for in vitro neurotoxicity screening of environmental compounds” (Archives of Toxicology, 2025):

Test system: human iPSC-derived 3D BrainSpheres
Test: BrainSphere MEA assay (HD-MEA, 13-day exposure, concentration-response); as to hitc Mean.Spheroid.Burst.Duration: key: 1 (active); 0 (inactive); as to hitc Mean.Spheroid.Burst.ISI: key: 1 (active); 0 (inactive); as to hitc Mean.Spheroid.Burst.Peak.Firing.Rate: key: 1 (active); 0 (inactive); as to hitc Mean.Spheroid.Firing.Rate: key: 1 (active); 0 (inactive); as to hitc Mean.Spheroid.IBI: key: 1 (active); 0 (inactive); as to hitc Mean.Spheroid.Nonburst.ISI: key: 1 (active); 0 (inactive); as to hitc Mean.Spheroid.Spikes.per.Burst.per.Electrode: key: 1 (active); 0 (inactive); as to hitc Mean.Spheroid.Spikes.per.Burst: key: 1 (active); 0 (inactive); as to hitc Spheroid.Burst.Frequency: key: 1 (active); 0 (inactive); as to hitc Spheroid.Spike.Amplitude.90th.Percentile: key: 1 (active); 0 (inactive)
Assay type: cell-based
Method: A volume of 1 ml of Tergazyme (1% solution in deionized water) was added to each well of the MaxTwo 6-Well Plate (MaxWell Biosystems) and incubated overnight under constant gyratory shaking (88 RPM) at 37 °C and 5% CO2. The next day, Tergazyme solution was removed, and plates were washed with distilled water and ethanol. After remaining ethanol was evaporated, wells were washed with PBS. Then, 200 µl of Poly-D-Lysine (Gibco, A38904 - 01) was added on top of the electrodes and incubated at 37 °C and 5% CO2 for 3 h (humidified). Poly-D-Lysine was then removed, and wells were coated with 100 µl of 0.1 mg/ml laminin coating solution (Sigma-Aldrich, L2020 - 1 mg) and incubated for 2 h at 37 ℃ and 5% CO2 (humidified). The laminin was removed after incubation. Using a 1 ml micropipette, 1 ml of medium containing BrainSpheres (7 weeks differentiated), approximately 25 BrainSpheres per ml, was plated on top of the HD-MEA chip (Fig. 1A). Afterwards, the plate was placed in an incubator at 37 °C and 5% CO2 and moved in circles to accumulate the BrainSpheres on top of the electrode area (Fig. 1A). The plate was kept in an incubator (humidified) for 2 days to allow attachment of the BrainSpheres with no gyratory shaking of the plates.
The MaxTwo high-density microelectrode array system (MaxWell Biosystems AG, Zurich, Switzerland) was used to measure neural activity with MaxTwo 6-well plates, where every well includes an integrated chip with 26,400 platinum electrodes arranged in an area of 3.85 × 2.10 mm^2 ([…]) (Muller et al. [2015]). The data were recorded and analyzed with the MaxLab Live Software (version 22.2.22). First, the MaxLab live ActivityScan Assay was used to identify the activity and positioning of the BrainSpheres on the array by scanning all the 26,400 electrodes in 29 configurations in a well (Assay Parameters: Configuration = Full; Recording time per configuration = 60 s (s)). The settings gain = 512, high-pass-filter (HPF): ~ 1 Hz and spike threshold = 5 X root-mean square (RMS) noise were used for all HD-MEA recordings. Circular regions of interest (ROI) were manually selected in the Activity Map where neuronal activity was apparent by an increased activity (Fig. 2). Over the course of the 13-day experiment, the same selected regions and electrodes were measured using the MaxLab Live Network Assay (600 s recording time).
A custom analysis framework was used to extract the MaxLab Live neuronal metrics for the individual BrainSpheres. For this, electrodes comprising a single ROI (i.e., individual BrainSphere; Fig. 2D) were grouped using distance-based clustering (fcluster method of Scipy library, Python 3.7) and neural metrics were calculated for the clustered electrodes for every ROI separately. Figure 2E presents a raster plot illustrating the activity associated with individual Regions of Interest (ROIs). […] Ten MaxLab Live neural metrics (endpoints) were evaluated from the MaxLab live ActivityScan and Network Assay in this study. See Table 3 for the endpoint definitions, tuned parameters, and activity type (general versus network connectivity).
The BrainSphere MEA assay measured changes in neural activity during a 13-day chemical exposure. The first recording day of the concentration–response screening protocol (day of exposure (DOE) 0) occurred after 7 weeks of BrainSphere differentiation, 48 h after plating on HD-MEA plates (Fig. 1B). The study included at least three biological replicates (one well per plate) from separate experiments (e.g., three different plates on three different days) and each well included multiple BrainSpheres which were considered technical replicates.

[1] = AUC over 13-day exposure, tcplfit2
[2] = tcplfit2 BMD at benchmark response (1.349*SD of baseline controls)
[3] = tcplfit2 output ACC, activity cutoff in Supplemental Table 1

CCCC(CCC)C(=O)O [Sodium valproate]
hitc Mean.Spheroid.Burst.Duration [1]: 0 | hitc Mean.Spheroid.Burst.ISI [1]: 0 | hitc Mean.Spheroid.Burst.Peak.Firing.Rate [1]: 0 | hitc Mean.Spheroid.Firing.Rate [1]: 0 | hitc Mean.Spheroid.IBI [1]: 0 | hitc Mean.Spheroid.Nonburst.ISI [1]: 0 | hitc Mean.Spheroid.Spikes.per.Burst [1]: 0 | hitc Mean.Spheroid.Spikes.per.Burst.per.Electrode [1]: 0 | hitc Spheroid.Burst.Frequency [1]: 0 | hitc Spheroid.Spike.Amplitude.90th.Percentile [1]: 0 | Percent active (metrics active out of the total number of metrics screened): 0% | BMD Mean.Spheroid.Burst.Duration [2]: 91 µM | BMD Mean.Spheroid.Burst.Peak.Firing.Rate [2]: 85 µM | BMD Mean.Spheroid.Firing.Rate [2]: 1.4 µM | BMD Mean.Spheroid.IBI [2]: 79 µM | BMD Mean.Spheroid.Spikes.per.Burst [2]: 124 µM | BMD Mean.Spheroid.Spikes.per.Burst.per.Electrode [2]: 90 µM | BMD Spheroid.Burst.Frequency [2]: 88 µM | BMD Spheroid.Spike.Amplitude.90th.Percentile [2]: 84 µM | ACC Mean.Spheroid.Burst.Duration [3]: 82 µM | ACC Mean.Spheroid.Burst.ISI [3]: 82 µM | ACC Mean.Spheroid.Burst.Peak.Firing.Rate [3]: 79 µM | ACC Mean.Spheroid.Firing.Rate [3]: 1.9 µM | ACC Spheroid.Burst.Frequency [3]: 87 µM | Hits (total number of active endpoints out of 10 MEA activity metrics, 13-day exposure): 0
